Test [1] concerns the target human ALK6 (Homo sapiens (Human), UniProt O00238). The experiment in a line: ALK6 enzyme inhibitory effect (33P-ATP kinase assay, Reaction Biology). It counts as biochemical. The conditions noted are these: ALK6, test compound 300 nM.
The test system of test [2] is BMP signal in MDA-231-D-BREFluc/Rluc cells. Kind of test: BMP signal inhibitory effect (AlphaScreen SureFire SMAD1 p-Ser463/465, BMP-6 stimulation). The conditions noted are these: BMP-6 stimulated MDA-231-D-BREFluc/Rluc cells, phospho-SMAD1 AlphaScreen. It counts as cell-based. As for the experimental part: BMP Signal Inhibitory Effect
A BMP signal inhibitory activity of a compound of the present invention was evaluated according to the following method.
MDA-231-D-BREFluc/Rluc cells prepared according to the method described in Y. Katsuno et al., Oncogene, 27, 6322 (2008) were incubated at 37° C. for 2 hours together with test compounds, and BMP-6 (commercially available from R&D System, 507-BM-020) was then added thereto, and the mixture was additionally incubated at 37° C. for 30 minutes. A Lysis Buffer and Acceptor mix of AlphaScreen SureFire SMAD1 (p-Ser463/465) assay kit (commercially available from Perkin Elmer, TGRSM1S10K) were sequentially added thereto, the mixture was incubated at room temperature for 2 hours, and AlphaScreen Protein A kit (commercially available from Perkin Elmer, 6760617) was then added thereto, and standard AlphaScreen settings of Alpha Technology—compatible plate reader (commercially available from Perkin Elmer, EnSpire) was used for measurement.

The chains behind the UniProt entries cited, without tags or fusion partners. Residues count along the entry.
UniProt O00238, 14-502 limits assumed: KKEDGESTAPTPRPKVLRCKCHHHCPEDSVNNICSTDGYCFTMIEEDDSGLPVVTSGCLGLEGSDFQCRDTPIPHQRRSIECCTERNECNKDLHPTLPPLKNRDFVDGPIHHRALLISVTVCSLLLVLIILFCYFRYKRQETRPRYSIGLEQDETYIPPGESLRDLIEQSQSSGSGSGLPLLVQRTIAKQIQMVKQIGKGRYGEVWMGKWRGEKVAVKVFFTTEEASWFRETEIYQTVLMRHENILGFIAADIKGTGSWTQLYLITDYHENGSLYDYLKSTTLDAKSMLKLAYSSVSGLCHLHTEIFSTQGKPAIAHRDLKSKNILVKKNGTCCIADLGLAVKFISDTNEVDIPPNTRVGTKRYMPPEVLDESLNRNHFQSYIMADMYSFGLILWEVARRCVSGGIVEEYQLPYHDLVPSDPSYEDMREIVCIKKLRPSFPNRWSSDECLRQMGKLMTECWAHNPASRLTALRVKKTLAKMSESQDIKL
UniProt P36894, 24-532 limits assumed: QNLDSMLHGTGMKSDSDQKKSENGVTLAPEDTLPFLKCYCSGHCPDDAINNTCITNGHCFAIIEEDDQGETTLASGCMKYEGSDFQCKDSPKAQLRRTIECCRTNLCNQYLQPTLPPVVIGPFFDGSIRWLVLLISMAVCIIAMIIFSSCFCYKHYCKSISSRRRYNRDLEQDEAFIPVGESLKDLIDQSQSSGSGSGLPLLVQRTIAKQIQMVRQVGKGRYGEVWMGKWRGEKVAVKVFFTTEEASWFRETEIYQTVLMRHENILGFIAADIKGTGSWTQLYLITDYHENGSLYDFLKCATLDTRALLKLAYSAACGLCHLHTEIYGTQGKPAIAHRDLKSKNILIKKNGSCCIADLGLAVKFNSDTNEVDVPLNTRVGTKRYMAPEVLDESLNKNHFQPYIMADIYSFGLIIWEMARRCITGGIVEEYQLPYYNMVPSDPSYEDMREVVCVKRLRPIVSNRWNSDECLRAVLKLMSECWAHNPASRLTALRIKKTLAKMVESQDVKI
UniProt Q04771, 21-509 limits assumed: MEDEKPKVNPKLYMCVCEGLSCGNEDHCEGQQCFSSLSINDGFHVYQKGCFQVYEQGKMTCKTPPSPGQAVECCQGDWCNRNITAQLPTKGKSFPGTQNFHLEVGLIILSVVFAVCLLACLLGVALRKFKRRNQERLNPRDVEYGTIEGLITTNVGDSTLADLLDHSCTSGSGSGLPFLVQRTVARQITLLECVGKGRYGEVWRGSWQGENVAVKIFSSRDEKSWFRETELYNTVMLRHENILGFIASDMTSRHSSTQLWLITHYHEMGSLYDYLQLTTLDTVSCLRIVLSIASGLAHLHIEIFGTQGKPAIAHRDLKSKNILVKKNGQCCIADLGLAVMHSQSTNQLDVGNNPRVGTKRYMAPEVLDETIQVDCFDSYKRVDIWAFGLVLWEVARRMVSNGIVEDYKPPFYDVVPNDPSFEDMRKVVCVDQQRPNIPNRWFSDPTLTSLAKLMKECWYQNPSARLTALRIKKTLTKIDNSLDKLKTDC

Test [3] concerns the target human ALK3 (Homo sapiens (Human), UniProt P36894). The experiment in a line: ALK3 enzyme inhibitory effect (33P-ATP kinase assay, Reaction Biology). It counts as biochemical. The conditions noted are these: ALK3, test compound 300 nM.
For test [4], the target named is human ALK2 (Homo sapiens (Human), UniProt Q04771). The experiment in a line: ALK2 enzyme inhibitory effect (33P-ATP kinase assay, Reaction Biology). The class given is biochemical. The following applies: ALK2, 10 μM ATP, 20 μM casein.

For the compound `CCn1cc(-c2ccnc(Nc3ccc(-n4cncn4)cc3)n2)c(-c2cccnc2)n1`, the “Inhibition rate at 300 nM” value came out at 88.9% in test [1] and 53.3% in test [3]. Also, the IC50 – broadly, the point on the concentration scale where inhibition reaches its midpoint – in test [2] was 16.4 nM; in test [4], 26.4 nM.

Values taken from patent US10954216B2, “BMP-signal-inhibiting compound” (RIKEN, priority 2016, dated 2021).
